Test system: Salmonella typhimurium strains TA98 and TA100
Assay: Ames MPF 98/100 test with or without liver S9 homogenate
Settings: TA98 and TA100, with and without S9, all conditions

## COC(=O)[C@H]1[C@@H](O)[C@@]2(O)c3c(OC)cc(O[C@@H]4O[C@@H]([C@H](O)CO)CO[C@H]4OC)cc3O[C@@]2(c2ccc(OC)cc2)[C@@H]1c1ccccc1 [silvestrol]
  mutagenic potential (Ames test): negative
